Experimental data reported in patent US8993349B2, “Method for enhancing transport of semiconductor nanocrystals across biological membranes” (Life Technologies Corporation, priority 2000, dated 2015).

Test system: SKBR3 cells
Assay: Herceptin antibody immunostaining of SCNC-encoded SKBR3 cells
Type: cell-based
Settings: SKBR3 cells encoded with green (530 nm) SCNCs vs unencoded; fluorescence microscopy
Method: SKBR3 cells were seeded into an 8-well chamber slide at a density of 80,000 cells per well and encoded with green (530 nm) SCNCs using the cationic lipid BioPorter as described in Example 3. Encoded or unencoded cells were incubated overnight at 37° C., 5% CO2. Cells were washed three times with PBS, and fixed in the presence of 3.7% formaldehyde for 10 minutes. The cells were washed 3 times with PBS, and incubated in the presence of PBS/1% bovine serum albumin (BSA) at room temperature for 30 minutes to minimize non-specific binding.
The cells in each well were incubated with 5 µg/ml herceptin antibody in PBS/1% BSA in a total volume of 150 1 for 30 min at room temperature. The cells were washed five times with PBS, and incubated with a 1:500 dilution of biotinylated goat anti-human IgG (Vector Laboratories, 1.5 mg/ml) for 30 minutes. The cells were washed again with PBS and incubated with a 1:400 dilution of streptavidin-conjugated Cy3 (Amersham, 1 mg/ml) for 30 minutes. The cells were washed again with PBS and the slide was mounted using 50% glycerol in PBS. The cells were imaged using a Nikon fluorescence microscope equipped with a Cy3 and green SCNC filter set. Control experiments indicate that binding of herceptin is unaffected by the SCNC code.

herceptin: herceptin antibody used to immunostain SKBR3 breast cancer cells
binding of herceptin, effect of SCNC encoding process or intracellular SCNC: unaffected
